Values of other authors, collected in patent publication US20230158116A1, “USE OF HUMAN AMYLIN ANALOG POLYPEPTIDES FOR PROVIDING SUPERIOR GLYCEMIC CONTROL TO TYPE 1 DIABETICS” (I2O Therapeutics, Inc., priority 2020, published 2023).

Details: in humans; cited from earlier work

In the case of `CC[C@H](C)[C@H](NC(=O)[C@@H]1CCCN1C(=O)CNC(=O)[C@H](Cc1ccccc1)NC(=O)[C@H](CC(N)=O)NC(=O)[C@H](CC(N)=O)NC(=O)[C@H](CO)NC(=O)[C@H](CO)NC(=O)[C@H](Cc1c[nH]cn1)NC(=O)[C@@H](NC(=O)[C@H](CC(C)C)NC(=O)[C@H](Cc1ccccc1)NC(=O)[C@H](CC(N)=O)NC(=O)[C@H](C)NC(=O)[C@H](CC(C)C)NC(=O)[C@H](CCCNC(=N)N)NC(=O)[C@H](CCC(N)=O)NC(=O)[C@@H](NC(=O)[C@H](C)NC(=O)[C@@H]1CSSC[C@H](NC(=O)[C@@H](N)CCCCN)C(=O)N[C@@H](CC(N)=O)C(=O)N[C@@H]([C@@H](C)O)C(=O)N[C@@H](C)C(=O)N[C@@H]([C@@H](C)O)C(=O)N1)[C@@H](C)O)C(C)C)C(=O)N[C@@H](CC(C)C)C(=O)N1CCC[C@H]1C(=O)N1CCC[C@H]1C(=O)N[C@H](C(=O)N[C@@H](CC(N)=O)C(=O)N[C@H](C(=O)NCC(=O)N[C@@H](CO)C(=O)N[C@@H](CC(N)=O)C(=O)N[C@H](C(=O)N[C@@H](Cc1ccc(O)cc1)C(N)=O)[C@@H](C)O)C(C)C)[C@@H](C)O` [pramlintide], the half-life is listed as “approximately 48 minutes”.
